Results as given in PubChem BioAssay AID1508602 (The Scripps Research Institute Molecular Screening Center, 2020).
Only a part is listed here, and it is no random draw. The source made the active and inactive calls. No stated cut-off is given here; in the data, active means activation above about 4.9%; inactive means the rest.

Chains of the proteins cited; added tags and fusions are not shown. Lines headed by an entry give the natural chain unless they say otherwise; changes in a name come on top.
UniProt Q8TDV0: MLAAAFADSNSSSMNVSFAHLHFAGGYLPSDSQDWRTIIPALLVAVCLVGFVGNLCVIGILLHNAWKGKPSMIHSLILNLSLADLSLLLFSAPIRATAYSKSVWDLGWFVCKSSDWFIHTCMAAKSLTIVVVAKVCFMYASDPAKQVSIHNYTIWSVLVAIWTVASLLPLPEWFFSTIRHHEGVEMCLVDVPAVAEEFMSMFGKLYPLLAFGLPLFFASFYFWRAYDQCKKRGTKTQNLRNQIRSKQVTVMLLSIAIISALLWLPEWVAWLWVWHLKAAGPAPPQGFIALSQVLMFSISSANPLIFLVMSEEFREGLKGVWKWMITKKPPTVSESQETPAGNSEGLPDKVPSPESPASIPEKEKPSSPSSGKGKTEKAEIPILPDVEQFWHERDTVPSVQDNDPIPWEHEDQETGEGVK

These molecules were tested against G-protein coupled receptor 151 (Homo sapiens) (UniProt Q8TDV0) (assay: activates the human receptor GPR151, primary screen, cell-based, PathHunter beta-arrestin, luminescence (AID 1508602;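 further: 0% = median of compound wells and 100% = cells with positive control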)). Conditions: PathHunter beta-arrestin GPR151 cells, at 11.2 µM, active compounds read high.
With `O=C(Nc1nnc(-c2cccc([N+](=O)[O-])c2)s1)c1ccc([N+](=O)[O-])cc1[N+](=O)[O-]` the activation was inactive: -2.14%. In the case of `Cc1cc(=O)[nH]c(N[N+](=O)[O-])n1`, the activation is reported as inactive: -1.03%. For `COc1ccc(C)cc1NC(=O)N(Cc1ccco1)C1CCN(CCc2ccccn2)CC1`, the activation was inactive: 0.267%. `CCOP(=S)(OCC)SCC(=O)NC(C)C(=O)NC` (stereo not drawn) was tested, and the activation was inactive: -0.0623%. With `CC(C)COP(=O)(Nc1cccc(F)c1)OCC(C)C` the activation was inactive: -0.751%. With `CC1CN(c2ccc([N+](=O)[O-])cc2[N+](=O)[O-])CCN1c1ccc([N+](=O)[O-])cc1[N+](=O)[O-]` (stereo not drawn) the activation was inactive: -0.457%. With `CC(C)OP(=O)(OC(C)C)C(=O)c1ccccc1` the activation was inactive: 0.539%. In the case of `c1ccc2nc(-c3nc4ccccc4[nH]3)ccc2c1`, the activation is reported as inactive: -8.85%. `BrCC1CN=C(Nc2ccccc2Br)S1` (stereo not drawn) was tested, and the activation was inactive: -0.562%. `O=C(COC(=O)C(O)(c1ccccc1)c1ccccc1)NCC(F)(F)F` was tested, and the activation was inactive: 1.32%. For `O=[N+]([O-])c1ccc(C(O)C(CO)Nc2ccc([N+](=O)[O-])cc2[N+](=O)[O-])cc1` (stereo not drawn), the activation was inactive: 0.693%. `O=[N+]([O-])c1cc([N+](=O)[O-])c(Nc2ccccc2)c([N+](=O)[O-])n1` was tested, and the activation was inactive: 0.178%. With `O=[N+]([O-])c1ccc2no[n+]([O-])c2c1` the activation was inactive: -0.413%. For `O=C(NNC(=O)c1ccncc1)NP1Oc2ccccc2O1`, the activation was inactive: 0.825%. With `Nc1nonc1OCCOc1nonc1N` the activation was inactive: -1.44%. For `CCOP(=S)(OCC)SCC(=O)NC(C)C(=O)O` (stereo not drawn), the activation was inactive: 3.68%. `CCCOc1ccc(S(=O)(=O)N(CCCl)CCCl)cc1` was tested, and the activation was inactive: 1.65%. `CCN(CCCl)c1ccc(C=C(C#N)C#N)c(C)c1` was tested, and the activation was inactive: -1.15%. `COP1(=S)N=C2c3ccccc3CN2c2cc(N(C)C)ccc21` (stereo not drawn) was tested, and the activation was inactive: -0.516%. `CC(C)NC(=O)NP(=O)(Oc1ccccc1)Oc1ccccc1` was tested, and the activation was inactive: -0.273%. In the case of `COC(=O)N(c1ccc(OC)cc1)P1(=S)OCC(C)O1` (stereo not drawn), the activation is reported as inactive: -1.03%. `CN(C)CCCN(C)Cc1cc2ccccc2o1` was tested, and the activation was inactive: 1.76%. In the case of `CCOP(=O)(OCC)C(=O)c1ccc(OC)cc1`, the activation is reported as inactive: -1.71%. For `CC(C)OP(=O)(OC(C)C)C(=O)c1ccc(F)cc1`, the activation was inactive: -0.0099%. With `O=[N+]([O-])c1cc([N+](=O)[O-])c2[nH]ncc2c1` the activation was inactive: -0.256%. With `O=C(Cn1cnc([N+](=O)[O-])n1)NCCO[N+](=O)[O-]` the activation was inactive: -0.276%. In the case of `CC(C)OP(=O)(NC(C)(C)C)C(Cl)Cl` (stereo not drawn), the activation is reported as inactive: -0.27%. `O=[N+]([O-])c1ccc(/C=C/C=N/Nc2ccc([N+](=O)[O-])cc2[N+](=O)[O-])cc1` was tested, and the activation was inactive: 0.843%. In the case of `O=C(O)Cc1ccc(N(CCCl)CCCl)cc1`, the activation is reported as inactive: -0.294%. For `O=C(c1cccnc1)N(Cc1ccco1)C1CCN(CCc2ccc(Cl)cc2)CC1`, the activation was inactive: 0.791%. For `O=P1(Nc2nc(-c3ccccc3)cs2)C=C(c2ccccc2)OC(c2ccccc2)=C1`, the activation was inactive: -0.821%. `CC(C)COP(=O)(Nc1ccc(Br)cc1)OCC(C)C` was tested, and the activation was inactive: 1.24%. `CCCCOP(=S)(CC(=O)N(CC)CC)OCCCC` was tested, and the activation was inactive: 0.28%. With `CC(C)OP(=O)(OC(C)C)C(=O)c1ccccc1Cl` the activation was inactive: -1.31%. For `Cc1sc2nc3n(c(=O)c2c1C)CC(CI)S3` (stereo not drawn), the activation was inactive: 2.84%. For `Cc1cc(SC(NC=O)C(Cl)(Cl)Cl)ncn1` (stereo not drawn), the activation was inactive: 0.437%. With `O=C(CF)NC(Sc1ccccc1)C(Cl)(Cl)Cl` (stereo not drawn) the activation was inactive: -0.197%. `CCN1C(=O)N(c2ccccc2)P(=S)(OC)c2cc3c(cc21)OCCO3` (stereo not drawn) was tested, and the activation was inactive: 1.61%. With `CC(C)OP(=O)(Nc1nc2ccccc2[nH]1)OC(C)C` the activation was inactive: 0.127%. With `O=C(Cc1ccc(F)cc1)N(Cc1ccco1)C1CCN(CCc2cccs2)CC1` the activation was inactive: 2.26%. In the case of `O=[N+]([O-])c1cccc(Nc2ccc([N+](=O)[O-])cc2[N+](=O)[O-])c1`, the activation is reported as inactive: -0.177%. For `CC(C)(C)C(=O)CSc1nc2ccccc2[nH]1`, the activation was inactive: -1.71%. In the case of `O=[N+]([O-])c1ccc(-c2nnc(SCCCl)o2)cc1`, the activation is reported as inactive: -0.765%. In the case of `CCN(CC)C(=O)NP(=O)(Oc1ccccc1)Oc1ccccc1`, the activation is reported as inactive: -1.45%. With `Cc1cc(NP(=O)(Oc2ccccc2)Oc2ccccc2)no1` the activation was inactive: 0.585%. With `Nc1c([N+](=O)[O-])cc([N+](=O)[O-])c(Nc2ccc(S(N)(=O)=O)cc2)c1[N+](=O)[O-]` the activation was inactive: 0.171%. With `O=C(Cc1ccc(F)cc1)N(Cc1cccnc1)C1CCN(CCc2ccccn2)CC1` the activation was inactive: 1.2%. With `COc1ccc(CCN2CCC(N(Cc3cccnc3)C(=O)NC(C)C)CC2)cc1` the activation was inactive: 0.419%. `O=C(COC(=O)c1ccc([N+](=O)[O-])cc1[N+](=O)[O-])c1ccc([N+](=O)[O-])cc1` was tested, and the activation was inactive: 0.721%. For `COc1cc(NC(=O)COC(=O)C(O)(c2ccccc2)c2ccccc2)cc(OC)c1`, the activation was inactive: 2.54%. For `Cc1cc(NP(=O)(/C=C(\Cl)c2ccccc2)/C=C(\Cl)c2ccccc2)n[nH]1`, the activation was inactive: 2.08%. In the case of `COc1ccc(NC(=O)c2cc([N+](=O)[O-])cc([N+](=O)[O-])c2)c([N+](=O)[O-])c1`, the activation is reported as inactive: -0.787%. In the case of `O=C(Nc1ccncc1[N+](=O)[O-])c1ccc([N+](=O)[O-])cc1[N+](=O)[O-]`, the activation is reported as inactive: 2.04%. In the case of `O=C(c1ccco1)N(Cc1cccnc1)C1CCN(CCc2ccc(Cl)cc2)CC1`, the activation is reported as inactive: 2.42%. In the case of `CCc1cccc(NC(=O)Oc2c([N+](=O)[O-])cc([N+](=O)[O-])cc2[N+](=O)[O-])c1`, the activation is reported as inactive: 1.91%. `CCCCC(NC(=O)OC(C)(C)C)C(=O)O` (stereo not drawn) was tested, and the activation was inactive: -0.0614%. In the case of `O=C(Nc1ccc(Br)cc1[N+](=O)[O-])c1cc([N+](=O)[O-])cc([N+](=O)[O-])c1`, the activation is reported as inactive: 0.299%. `COC(=O)c1cc([N+](=O)[O-])c(Nc2ccc([N+](=O)[O-])cc2Br)c([N+](=O)[O-])c1` was tested, and the activation was inactive: -0.556%.
